This note sets out measurements from PubChem BioAssay AID651953 (The Scripps Research Institute Molecular Screening Center, 2012).

The list shows a part of the results, in another mix than the full data. Calls of active or inactive are those of the source. Cut-off read from the data, not from the text of the source: active = activation above about 12%; inactive = the rest.

This test can be described thus: nonspecific calcium signal increase, Ga16 cells – cell-based, fluorescence, counter-screen for TAAR1 antagonist project (AID 651953).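 Note: 0% = vehicle wells and 100% = saturating stimulus response.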 The settings on record: Ga16-expressing cells, agonist counterscreen, at 3 µM, stronger effect = higher value.
Take `O=c1[nH]c2ccccc2n1C1CCN(C(c2ccnc3ccccc23)c2nnnn2C2CCCCC2)CC1` (stereo not drawn): the activation is inactive: 10.6%.

In the case of `COc1cccc(C(c2nnnn2C2CCCC2)N2CCC(n3c(=O)[nH]c4ccccc43)CC2)c1OC` (stereo not drawn), the activation is inactive: 9.74%.

Regarding `O=c1[nH]c2ccccc2n1C1CCN(C(c2cccs2)c2nnnn2C2CCCCC2)CC1` (stereo not drawn), the activation was active: 12.4%.

`CCCCn1nnnc1C(c1ccccc1)N1CCC(n2c(=O)[nH]c3ccccc32)CC1` (stereo not drawn): the activation was inactive: 6.61%.

With `O=c1[nH]c2ccccc2n1C1CCN(C(c2cccs2)c2nnnn2C2CCCC2)CC1` (stereo not drawn), the activation is inactive: 11.3%.

With `O=c1[nH]c2ccccc2n1C1CCN(C(c2ccccc2)c2nnnn2C2CCCC2)CC1` (stereo not drawn), the activation is inactive: 5.67%.

With `CCCCn1nnnc1C(c1cc2ccccc2o1)N1CCC(n2c(=O)[nH]c3ccccc32)CC1` (stereo not drawn), the activation is inactive: 7.07%.

For `O=c1[nH]c2ccccc2n1C1CCN(C(c2ccccc2)c2nnnn2C2CCCCC2)CC1` (stereo not drawn), the activation is inactive: 9.93%.
